pIC50: −log10 of the molar value.
Molecular target: Serine-protein kinase ATM (Homo sapiens, UniProt Q13315)
Experiment: Inhibition of ATM phosphorylation at Ser-1981 residue in human HT-29 cells incubated for 1 hr followed by X-ray irradiation by Hoechst staining based fluorescence plate reader analysis
Format: cell-based

Amino acid sequences for entries named in this document (tags omitted). A change or cut given only in a name is not applied to a line headed by its entry.
UniProt Q13315: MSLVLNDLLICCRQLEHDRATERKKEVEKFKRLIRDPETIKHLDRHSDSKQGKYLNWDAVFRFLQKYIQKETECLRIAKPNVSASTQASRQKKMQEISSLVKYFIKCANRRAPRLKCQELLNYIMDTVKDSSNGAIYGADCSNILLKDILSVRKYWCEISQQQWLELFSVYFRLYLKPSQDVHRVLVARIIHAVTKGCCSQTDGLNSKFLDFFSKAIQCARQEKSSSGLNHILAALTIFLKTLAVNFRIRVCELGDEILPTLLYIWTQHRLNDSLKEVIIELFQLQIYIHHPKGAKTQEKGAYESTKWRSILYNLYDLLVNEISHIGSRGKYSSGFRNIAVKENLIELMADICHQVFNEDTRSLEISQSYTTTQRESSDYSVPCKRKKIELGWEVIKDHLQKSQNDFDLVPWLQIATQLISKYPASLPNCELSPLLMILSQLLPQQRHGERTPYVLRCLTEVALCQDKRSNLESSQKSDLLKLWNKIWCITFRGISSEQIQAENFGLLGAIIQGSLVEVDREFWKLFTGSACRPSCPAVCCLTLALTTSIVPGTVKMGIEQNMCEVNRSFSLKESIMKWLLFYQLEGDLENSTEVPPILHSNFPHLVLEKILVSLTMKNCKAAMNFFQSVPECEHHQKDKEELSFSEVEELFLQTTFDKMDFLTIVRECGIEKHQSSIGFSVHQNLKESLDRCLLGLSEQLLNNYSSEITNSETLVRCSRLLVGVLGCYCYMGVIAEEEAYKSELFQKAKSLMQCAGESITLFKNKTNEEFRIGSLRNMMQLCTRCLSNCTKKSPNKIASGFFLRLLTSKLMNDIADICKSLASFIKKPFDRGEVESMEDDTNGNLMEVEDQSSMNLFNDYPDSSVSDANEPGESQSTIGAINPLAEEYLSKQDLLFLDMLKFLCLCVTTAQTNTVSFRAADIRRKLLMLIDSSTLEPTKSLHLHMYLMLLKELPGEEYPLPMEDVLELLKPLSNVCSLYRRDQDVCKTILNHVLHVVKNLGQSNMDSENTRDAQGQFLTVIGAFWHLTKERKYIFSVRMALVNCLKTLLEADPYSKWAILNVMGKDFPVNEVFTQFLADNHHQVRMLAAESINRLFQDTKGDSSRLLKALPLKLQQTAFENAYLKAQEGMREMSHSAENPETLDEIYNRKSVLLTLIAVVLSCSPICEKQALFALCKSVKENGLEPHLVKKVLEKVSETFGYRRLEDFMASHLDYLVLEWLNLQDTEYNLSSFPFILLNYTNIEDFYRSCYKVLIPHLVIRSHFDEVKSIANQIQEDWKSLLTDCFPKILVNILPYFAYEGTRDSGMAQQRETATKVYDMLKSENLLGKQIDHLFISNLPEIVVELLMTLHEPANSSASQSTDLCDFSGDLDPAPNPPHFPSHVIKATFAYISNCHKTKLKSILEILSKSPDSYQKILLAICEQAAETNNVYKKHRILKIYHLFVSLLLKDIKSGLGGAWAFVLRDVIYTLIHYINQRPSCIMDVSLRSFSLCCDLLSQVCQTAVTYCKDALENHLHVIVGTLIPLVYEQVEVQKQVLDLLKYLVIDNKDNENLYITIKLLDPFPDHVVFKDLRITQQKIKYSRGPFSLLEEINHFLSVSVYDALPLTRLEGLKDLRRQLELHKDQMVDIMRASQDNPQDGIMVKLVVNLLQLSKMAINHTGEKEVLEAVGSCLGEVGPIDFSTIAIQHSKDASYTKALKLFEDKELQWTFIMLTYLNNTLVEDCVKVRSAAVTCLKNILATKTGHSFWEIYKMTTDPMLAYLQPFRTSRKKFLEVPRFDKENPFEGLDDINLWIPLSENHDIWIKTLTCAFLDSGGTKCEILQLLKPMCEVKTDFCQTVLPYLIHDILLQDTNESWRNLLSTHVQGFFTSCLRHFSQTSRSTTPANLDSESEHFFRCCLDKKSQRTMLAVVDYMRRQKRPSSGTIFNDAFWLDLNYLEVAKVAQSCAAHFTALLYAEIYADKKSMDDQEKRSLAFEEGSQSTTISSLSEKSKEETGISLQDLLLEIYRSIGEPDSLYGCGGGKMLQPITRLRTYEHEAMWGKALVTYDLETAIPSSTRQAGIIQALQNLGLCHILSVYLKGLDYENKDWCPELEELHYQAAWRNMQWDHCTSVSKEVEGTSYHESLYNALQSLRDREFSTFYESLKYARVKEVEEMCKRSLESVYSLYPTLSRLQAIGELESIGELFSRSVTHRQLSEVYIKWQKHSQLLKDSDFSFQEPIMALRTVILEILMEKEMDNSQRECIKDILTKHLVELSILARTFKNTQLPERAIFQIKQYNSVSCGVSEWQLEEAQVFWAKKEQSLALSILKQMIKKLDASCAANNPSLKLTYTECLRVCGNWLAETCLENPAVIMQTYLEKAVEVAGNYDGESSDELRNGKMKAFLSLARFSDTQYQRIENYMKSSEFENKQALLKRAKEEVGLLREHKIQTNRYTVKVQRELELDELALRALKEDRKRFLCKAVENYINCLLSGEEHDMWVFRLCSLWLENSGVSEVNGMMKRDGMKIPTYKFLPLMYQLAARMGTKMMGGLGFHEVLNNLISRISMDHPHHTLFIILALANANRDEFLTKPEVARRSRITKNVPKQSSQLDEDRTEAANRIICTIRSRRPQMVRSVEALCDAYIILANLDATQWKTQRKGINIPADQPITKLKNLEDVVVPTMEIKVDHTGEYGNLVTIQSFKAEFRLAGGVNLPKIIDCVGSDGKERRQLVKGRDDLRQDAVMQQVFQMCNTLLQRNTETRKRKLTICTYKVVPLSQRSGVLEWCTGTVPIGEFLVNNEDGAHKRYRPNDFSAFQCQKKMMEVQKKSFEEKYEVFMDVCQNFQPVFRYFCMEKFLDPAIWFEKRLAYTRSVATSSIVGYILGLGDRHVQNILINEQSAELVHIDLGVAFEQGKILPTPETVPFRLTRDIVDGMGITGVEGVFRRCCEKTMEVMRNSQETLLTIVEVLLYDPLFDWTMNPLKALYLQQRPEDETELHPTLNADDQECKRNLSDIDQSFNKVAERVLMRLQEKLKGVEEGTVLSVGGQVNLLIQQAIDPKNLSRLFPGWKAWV

- pIC50: 7.14
SMILES: COCc1ccc(-c2cc3c(N[C@@H](C)c4ccn(C)n4)c(C(N)=O)cnc3cc2F)c(F)n1

From ChEMBL document CHEMBL4477207, “Discovery of Novel 3-Quinoline Carboxamides as Potent, Selective, and Orally Bioavailable Inhibitors of Ataxia Telangiectasia Mutated (ATM) Kinase” (J Med Chem, 2016)
